Laboratory results as given in article PMC4366370, “Overexpression of a Novel Thermostable and Chloride-Tolerant Laccase from Thermus thermophilus SG0.5JP17-16 in Pichia pastoris and Its Application in Synthetic Dye Decolorization” (PLoS ONE, 2015).

System: CCn1c(=NN=c2sc3cc(S(=O)(=O)O)ccc3n2CC)sc2cc(S(=O)(=O)O)ccc21
Test: purified protein
Settings: optimal pH 4.5, 90°C

Substance: LacTT (Thermus thermophilus SG0.5JP17-16)
- Km: 36.0 ± 3.4 µM
- kcat: 0.365 s⁻¹
- kcat/Km: 11000 M⁻¹ s⁻¹
